{"source": "patent US20220362326A1", "about": "“INHIBITING ZD17-JNK I[…] A THERAPY FOR ACUTE MYOCARDIAL INFARCTION” (The University of British Columbia, priority 2019, published 2022)", "test_system": "rat model of AMI", "assay": "Rat model of AMI: heart function (hemodynamic) measurement", "conditions": "rats, 20 mg/kg i.v. at 0, 24 and 48 hours after surgery, measured 4 weeks after last injection; vs saline", "note": "Ends that are not written are not given here.", "data": [{"sequence": "WAAYRTHSVDYGRKKRRQRRR [NIMoEsh-Tat, WAAYRTHSVD-YGRKKRRQRRR]", "values": [{"measurement": "left ventricular end diastolic pressure (FIG. 2f)", "result": "rescued heart function after AMI"}]}]}
